Measurements reported in US9040663B2, “Melanocortin receptor-specific peptides” (AstraZeneca AB, priority 2009, dated 2015).

What follows are molecules tested against MC1-R (assay: Competitive inhibition binding assay using [I125]-NDP-α-MSH, MC1-R). Settings: membranes of B-16 mouse melanoma cells (endogenous MC1-R), in some instances HEK-293 hMC1-R.
Description: 7.1 Competitive Inhibition Assay using [I^125]-NDP-α-MSH.
A competitive inhibition binding assay was performed for exemplified peptides according to the invention using membrane homogenates prepared from HEK-293 cells that express recombinant hMC4-R, hMC3-R, or hMC5-R, and from B-16 mouse melanoma cells (containing endogenous MC1-R). In some instances, HEK-293 cells that express recombinant hMC1-R were employed. Assays were performed in 96 well GF/B Millipore multiscreen filtration plates (MAFB NOB10) pre-coated with 0.5% bovine serum albumin (Fraction V). Membrane homogenates were incubated with 0.2 nM (for hMC4-R) 0.4 nM (for MC3-R and MC5-R) or 0.1 nM (for mouse B16 MC1-R or hMC1-R) [I^125]-NDP-α-MSH (Perkin Elmer) and increasing concentrations of test peptides of the present invention in buffer containing 25 mM HEPES buffer (pH 7.5) with 100 mM NaCl, 2 mM CaCl2, 2 mM MgCl2, 0.3 mM 1,10-phenanthroline, and 0.2% bovine serum albumin. After incubation for 60 minutes at 37° C., the assay mixture was filtered and the membranes washed three times with ice-cold buffer. Filters were dried and counted in a gamma counter for bound radioactivity. […] Maximal specific binding (100%) was defined as the difference in radioactivity (cpm) bound to cell membranes in the absence and presence of 1 μM NDP-α-MSH. […] Each assay was conducted in triplicate and the actual mean values are described, with results less than 0% reported as 0%. Ki values for test peptides of the present invention were determined using Graph-Pad Prism® curve-fitting software.
With CC(=O)N[C@H](CCCNC(=N)N)C(=O)N[C@H]1CCCNC(=O)CC[C@@H](C(N)=O)NC(=O)[C@H](Cc2c[nH]c3ccccc23)NC(=O)[C@H](CCCNC(=N)N)NC(=O)[C@@H](Cc2ccc(F)c(F)c2)NC(=O)[C@H](Cc2c[nH]cn2)NC1=O [Example 54, Ac-D-Arg-cyclo(Orn-His-D-Phe(3,4-diF)-Arg-Trp-Glu)-NH2] the Ki was 0.7 nM.
With CC(=O)N[C@@H](CCCNC(=N)N)C(=O)N[C@H]1CCC(=O)NCCC[C@@H](C(N)=O)NC(=O)[C@H](Cc2c[nH]c3ccccc23)NC(=O)[C@H](CCCNC(=N)N)NC(=O)[C@@H](Cc2ccccc2C(F)(F)F)NC(=O)[C@H](CC(N)=O)NC1=O [Example 116, Ac-Arg-cyclo(Glu-Asn-D-Phe(2-CF3)-Arg-Trp-Orn)-NH2] the Ki was 380 nM.
Molecule CC(=O)N[C@@H](CCCNC(=N)N)C(=O)N[C@H]1CCC(=O)NCCC[C@@H](C(N)=O)NC(=O)[C@H](Cc2c[nH]c3ccccc23)NC(=O)[C@H](CCCNC(=N)N)NC(=O)[C@@H](Cc2ccccc2Cl)NC(=O)[C@H](CN)NC1=O [Example 62, Ac-Arg-cyclo(Glu-Dap-D-Phe(2-Cl)-Arg-Trp-Orn)-NH2] has a Ki of 28 nM.
CC(=O)N[C@@H](CCCNC(=N)N)C(=O)N[C@H]1CCCNC(=O)CC[C@@H](C(N)=O)NC(=O)[C@H](Cc2c[nH]c3ccccc23)NC(=O)[C@H](CCCNC(=N)N)NC(=O)[C@@H](Cc2cc(F)cc(F)c2)NC(=O)[C@H](CC(N)=O)NC1=O [Example 77, Ac-Arg-cyclo(Orn-Asn-D-Phe(3,5-diF)-Arg-Trp-Glu)-NH2] gave a Ki of 190 nM.
For CC(=O)N[C@@H](CCCNC(=N)N)C(=O)N[C@H]1CCC(=O)NCCC[C@@H](C(N)=O)NC(=O)[C@H](Cc2c[nH]c3ccccc23)NC(=O)[C@H](CCCNC(=N)N)NC(=O)[C@@H](Cc2ccccc2F)NC(=O)[C@H](CCN)NC1=O [Example 9, Ac-Arg-cyclo(Glu-Dab-D-Phe(2-F)-Arg-Trp-Orn)-NH2], the Ki was 0.8 nM.
CC(=O)N[C@@H](CCCNC(=N)N)C(=O)N[C@H]1CCC(=O)NCCC[C@@H](C(N)=O)NC(=O)[C@H](Cc2c[nH]c3ccccc23)NC(=O)[C@H](CCCNC(=N)N)NC(=O)[C@@H](Cc2ccc(C)cc2)NC(=O)[C@H](CCN)NC1=O [Example 15, Ac-Arg-cyclo(Glu-Dab-D-Phe(4-Me)-Arg-Trp-Orn)-NH2] showed a Ki of 0.75 nM.
For CC(=O)N[C@@H](CCCNC(=N)N)C(=O)N[C@H]1CCCNC(=O)CC[C@@H](C(N)=O)NC(=O)[C@H](Cc2c[nH]c3ccccc23)NC(=O)[C@H](CCCNC(=N)N)NC(=O)[C@@H](Cc2cccc(C)c2)NC(=O)[C@H](CC(N)=O)NC1=O [Example 72, Ac-Arg-cyclo(Orn-Asn-D-Phe(3-Me)-Arg-Trp-Glu)-NH2], the Ki was 2300 nM.
CC(=O)N[C@@H](CCCNC(=N)N)C(=O)N[C@H]1CCC(=O)NCCC[C@@H](C(N)=O)NC(=O)[C@H](Cc2c[nH]c3ccccc23)NC(=O)[C@H](CCCNC(=N)N)NC(=O)[C@@H](Cc2ccccc2C#N)NC(=O)[C@H](CCN)NC1=O [Example 12, Ac-Arg-cyclo(Glu-Dab-D-Phe(2-CN)-Arg-Trp-Orn)-NH2] was tested, and the Ki was 35 nM.
In the case of CC(=O)N[C@@H](CCCNC(=N)N)C(=O)N[C@H]1CCC(=O)NCCC[C@@H](C(N)=O)NC(=O)[C@H](Cc2c[nH]c3ccccc23)NC(=O)[C@H](CCCNC(=N)N)NC(=O)[C@@H](Cc2ccccc2F)NC(=O)[C@H](CCC(N)=O)NC1=O [Example 59, Ac-Arg-cyclo(Glu-Gln-D-Phe(2-F)-Arg-Trp-Orn)-NH2], the Ki is reported as 58 nM.
For CC(=O)N[C@H](CCCNC(=N)N)C(=O)N[C@H]1CC(=O)NCCCC[C@@H](C(N)=O)NC(=O)[C@H](Cc2c[nH]c3ccccc23)NC(=O)[C@H](CCCNC(=N)N)NC(=O)[C@@H](Cc2ccccc2F)NC(=O)[C@H](CCC(N)=O)NC1=O [Example 82, Ac-D-Arg-cyclo(Asp-Gln-D-Phe(2-F)-Arg-Trp-Lys)-NH2], the Ki was 220 nM.
Molecule CC(=O)N[C@@H](CCCNC(=N)N)C(=O)N[C@H]1CCC(=O)NCCC[C@@H](C(N)=O)NC(=O)[C@H](Cc2c[nH]c3ccccc23)NC(=O)[C@H](CCCNC(=N)N)NC(=O)[C@@H](Cc2ccccc2C)NC(=O)[C@H](CC(N)=O)NC1=O [Example 73, Ac-Arg-cyclo(Glu-Asn-D-Phe(2-Me)-Arg-Trp-Orn)-NH2] has a Ki of 160 nM.
For CC(=O)N[C@H](CCCNC(=N)N)C(=O)N[C@H]1CCCNC(=O)CC[C@@H](C(N)=O)NC(=O)[C@H](Cc2c[nH]c3ccccc23)NC(=O)[C@H](CCCNC(=N)N)NC(=O)[C@@H](Cc2ccccc2Cl)NC(=O)[C@H](Cc2c[nH]cn2)NC1=O [Example 50, Ac-D-Arg-cyclo(Orn-His-D-Phe(2-Cl)-Arg-Trp-Glu)-NH2], the Ki was 2 nM.
For CC(=O)N[C@@H](CCCNC(=N)N)C(=O)N[C@H]1CCC(=O)NCCC[C@@H](C(N)=O)NC(=O)[C@H](Cc2c[nH]c3ccccc23)NC(=O)[C@H](CCCNC(=N)N)NC(=O)[C@@H](Cc2cccc(Cl)c2)NC(=O)[C@H](CCN)NC1=O [Example 2, Ac-Arg-cyclo(Glu-Dab-D-Phe(3-Cl)-Arg-Trp-Orn)-NH2], the Ki was 1 nM.
In the case of CC(=O)N[C@@H](CCCNC(=N)N)C(=O)N[C@H]1CCC(=O)NCCC[C@@H](C(N)=O)NC(=O)[C@H](Cc2c[nH]c3ccccc23)NC(=O)[C@H](CCCNC(=N)N)NC(=O)[C@@H](Cc2cccc(C(F)(F)F)c2)NC(=O)[C@H](CCN)NC1=O [Example 14, Ac-Arg-cyclo(Glu-Dab-D-Phe(3-CF3)-Arg-Trp-Orn)-NH2], the Ki is reported as 9 nM.
CC(=O)N[C@@H](CCCNC(=N)N)C(=O)N[C@H]1CCCNC(=O)CC[C@@H](C(N)=O)NC(=O)[C@H](Cc2c[nH]c3ccccc23)NC(=O)[C@H](CCCNC(=N)N)NC(=O)[C@@H](Cc2ccccc2C)NC(=O)[C@H](CCC(N)=O)NC1=O [Example 111, Ac-Arg-cyclo(Orn-Gln-D-Phe(2-Me)-Arg-Trp-Glu)-NH2] was tested, and the Ki was 145 nM.
